Amino acid sequences for entries named in this document (tags omitted).
UniProt P61073, whole entry: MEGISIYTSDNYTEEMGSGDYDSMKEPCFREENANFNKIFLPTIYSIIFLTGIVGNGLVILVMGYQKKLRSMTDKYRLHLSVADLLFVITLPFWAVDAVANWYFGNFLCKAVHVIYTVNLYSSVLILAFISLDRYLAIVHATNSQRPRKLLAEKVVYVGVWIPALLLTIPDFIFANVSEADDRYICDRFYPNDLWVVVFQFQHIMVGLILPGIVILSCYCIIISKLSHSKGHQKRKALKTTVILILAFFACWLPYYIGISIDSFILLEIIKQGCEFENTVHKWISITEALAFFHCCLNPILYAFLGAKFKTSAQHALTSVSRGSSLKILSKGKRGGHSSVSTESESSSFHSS

According to ChEMBL document CHEMBL4052827, “Discovery of Tetrahydroisoquinoline-Containing CXCR4 Antagonists with Improved in Vitro ADMET Properties” (J Med Chem, 2018):

Columns and labels:
[1] = target: T1, C-X-C chemokine receptor type 4 (Homo sapiens, UniProt P61073); experiment: Antagonist activity at human CXCR4 in CCRF-CEM cells assessed as decrease in SDF-1alpha stimulated Ca2+ flux preincubated for 25 mins followed by SDF-1alpha addition measured for 90 secs by calcium dye-based fluorescence assay; format: functional, cell-based
[2] = target: T1, C-X-C chemokine receptor type 4; experiment: Agonist activity at CXCR4 in human CCRF-CEM cells assessed as induction of Ca2+ flux measured for 90 secs by calcium dye-based fluorescence assay; format: functional, cell-based

Row | IC50 [1] | EC50 [2] | Compound
1 | 0.0895 µM | > 30 µM | c1ccc(CNCCCCN(C[C@H]2Cc3ccccc3CN2)[C@H]2CCCc3cccnc32)nc1
2 |  | > 30 µM | c1ccc2c(c1)CN[C@@H](CN(Cc1ccc(CNCC3CCOCC3)cc1)[C@H]1CCCc3cccnc31)C2
3 |  | > 30 µM | NCc1ccc(CN(C[C@H]2Cc3ccccc3CN2)[C@H]2CCCc3cccnc32)cc1
4 |  | > 30 µM | c1cncc(CNCc2ccc(CN(C[C@H]3Cc4ccccc4CN3)[C@H]3CCCc4cccnc43)cc2)c1
